Values quoted from earlier work in US6503545B1, “Hyper-absorption of vitamin E combined with milk protein” (Brandeis University, priority 1999, dated 2003).

Details: 800 IU per day for 4 months, healthy elderly; cited from earlier work

In the case of vitamin E, the side-effects is listed as “no detectable side-effects”.
